# Target: OP-inhibited human butyrylcholinesterase (hBChE) (Homo sapiens, UniProt P06276)
# The chains behind the UniProt entries cited, without tags or fusion partners. Where a name states a change or a piece, a line headed by the entry shows the natural chain unless it says otherwise.
# UniProt P06276: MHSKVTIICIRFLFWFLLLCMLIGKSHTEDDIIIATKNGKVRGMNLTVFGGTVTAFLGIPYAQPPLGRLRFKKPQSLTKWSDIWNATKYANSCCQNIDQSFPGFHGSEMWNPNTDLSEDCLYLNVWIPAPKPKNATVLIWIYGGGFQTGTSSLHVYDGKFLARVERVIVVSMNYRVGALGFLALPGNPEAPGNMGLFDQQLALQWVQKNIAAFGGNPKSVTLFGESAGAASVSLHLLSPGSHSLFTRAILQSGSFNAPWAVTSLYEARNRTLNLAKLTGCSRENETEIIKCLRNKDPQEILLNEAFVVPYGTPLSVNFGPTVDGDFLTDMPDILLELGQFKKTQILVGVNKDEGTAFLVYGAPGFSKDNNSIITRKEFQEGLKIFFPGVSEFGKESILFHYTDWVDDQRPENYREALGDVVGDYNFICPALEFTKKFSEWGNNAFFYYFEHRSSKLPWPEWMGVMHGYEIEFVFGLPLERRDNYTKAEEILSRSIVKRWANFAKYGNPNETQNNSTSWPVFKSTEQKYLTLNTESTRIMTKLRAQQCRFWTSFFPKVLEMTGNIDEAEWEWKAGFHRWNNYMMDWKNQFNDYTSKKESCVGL
# Experiment: Oxime-assisted reactivation of OP-inhibited hBChE (Ellman method)
# Details: 0.1 mM oxime (0.05 mM C3), 25 °C
substance,measurement,setting,value
HI-6,"Reactmax, maximal reactivation",Cyclosarin-inhibited hBChE,70%
same,"kobs, observed reactivation rate constant",Cyclosarin-inhibited hBChE,0.0260 min⁻¹
same,"t, time in which Reactmax was obtained",Cyclosarin-inhibited hBChE,24 h
same,"Reactmax, maximal reactivation",Sarin-inhibited hBChE,98%
same,"kobs, observed reactivation rate constant",Sarin-inhibited hBChE,0.0113 min⁻¹
same,"t, time in which Reactmax was obtained",Sarin-inhibited hBChE,24 h
same,"Reactmax, maximal reactivation",VX-inhibited hBChE,85%
same,"kobs, observed reactivation rate constant",VX-inhibited hBChE,0.0356 min⁻¹
same,"t, time in which Reactmax was obtained",VX-inhibited hBChE,2.5 h

# Source: article PMC6151989, “New Cinchona Oximes Evaluated as Reactivators of Acetylcholinesterase and Butyrylcholinesterase Inhibited by Organophosphorus Compounds” (2017)
